{
  "sequences": {"note": "The chains behind the UniProt entries cited, without tags or fusion partners. Where a name states a change or a piece, a line headed by the entry shows the natural chain unless it says otherwise.", "UniProt Q99828": "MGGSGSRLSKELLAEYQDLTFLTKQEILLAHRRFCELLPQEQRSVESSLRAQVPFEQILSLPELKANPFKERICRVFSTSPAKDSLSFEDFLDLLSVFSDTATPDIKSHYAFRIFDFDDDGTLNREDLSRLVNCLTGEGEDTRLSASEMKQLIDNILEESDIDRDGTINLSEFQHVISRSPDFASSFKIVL"},
  "source": "paper PMC11219766",
  "about": "(Nature Communications, 2024)",
  "key": {"CIB1": {"molecular_target": "CIB1 (Homo sapiens, UniProt Q99828)", "experiment": "biochemical", "procedure": "(§1) Cell death was assessed by trypan blue exclusion. […] Source data are provided as a Source Data file."}, "MDA-MB-231 cells": {"test_system": "MDA-MB-231 cells", "procedure": "as §1"}, "MDA-MB-468 cells": {"test_system": "MDA-MB-468 cells", "procedure": "as §1"}, "MDA-MB-461 cells": {"test_system": "MDA-MB-461 cells", "conditions": "for Initial screen in CIB1 depletion sensitive MDA-MB-461 cells: cell death measured at 24 h at 30 uM compound, column head prints no unit, percentage of dead cells per method"}, "TRAIL-R1/D5 expression": {"test_system": "TRAIL-R1/D5 expression", "conditions": "three CIB1 depletion-sensitive cell lines"}, "BT549 cells": {"test_system": "BT549 cells", "conditions": "MDA-549 cells (so in the source), trypan blue cell count (adherent + floating) (Figure 3D source data)", "procedure": "as §1"}, "MDA-MB-436 cells": {"test_system": "MDA-MB-436 cells", "conditions": "MDA-436 cells, 5380 30 µM, trypan blue cell count (adherent + floating), independent experiments (Figure 3D source data)", "procedure": "as §1"}, "MDA453 cells": {"test_system": "MDA453 cells", "conditions": "MDA-453 cells, 5380 30 µM, trypan blue cell count (adherent + floating), independent experiments (Figure 3D source data)", "procedure": "as §1"}},
  "note": "Where “and” joins values, the source holds several entries; their conditions need not be identical. Identical values can stand only once.",
  "data": [
    {"molecule": "COc1cccc(OCCCn2cc(C=C3C(=O)NC(=O)N(Cc4ccco4)C3=O)c3ccccc32)c1", "note": "[UNC10245380A, COc1cccc(OCCCn2cc(C=C3C(=O)NC(=O)N(Cc4ccco4)C3=O)c3ccccc23)c1]", "values": [
      {"measurement": "IC50", "setting": "CIB1", "value": 8, "unit": "µM"},
      {"measurement": "MDA-MB-231 % cell death (±SD; n=3)", "setting": "MDA-MB-231 cells; 24 h at 30 uM compound", "value": "5.8 ± 1.4", "unit": "%"},
      {"measurement": "cell killing activity", "setting": "MDA-MB-231 cells; CIB1-depletion-insensitive MDA-MB-231 cell line", "value": "no activity"},
      {"measurement": "MDA-MB-468 % cell death (±SD; n=3)", "setting": "MDA-MB-468 cells; 24 h at 30 uM compound", "value": "85.43 ± 1.4", "unit": "%"},
      {"measurement": "cell killing activity", "setting": "MDA-MB-468 cells; CIB1-depletion-sensitive MDA-MB-468 cell line", "value": "significant cell killing activity"},
      {"measurement": "dose-dependent cell death of MDA-468 TNBC cells", "setting": "MDA-MB-468 cells; over 48 h", "value": "> 90", "unit": "%"},
      {"measurement": "cell killing activity", "setting": "MDA-MB-461 cells; CIB1-depletion-sensitive MDA-MB-461 cell line", "value": "significant cell killing activity"},
      {"measurement": "Initial screen in CIB1 depletion sensitive MDA-MB-461 cells", "setting": "MDA-MB-461 cells", "value": 82, "unit": "%"},
      {"measurement": "death receptor TRAIL-R1/D5 expression", "setting": "TRAIL-R1/D5 expression", "value": "upregulates"},
      {"measurement": "γH2AX (Western blot)", "setting": "γH2AX", "value": "upregulates γH2AX"}
    ]},
    {"molecule": "Cc1noc(C)c1COc1cccc(C(=O)Nc2cccc(S(=O)(=O)Nc3cccc(C(F)(F)F)c3)c2)c1", "note": "[UNC10245406A, Cc1noc(C)c1COc1cccc(c1)C(=O)Nc1cccc(c1)S(=O)(=O)Nc1cccc(c1)C(F)(F)F]", "values": [
      {"measurement": "Initial screen in CIB1 depletion sensitive MDA-MB-461 cells", "setting": "MDA-MB-461 cells", "value": 12, "unit": "%"}
    ]},
    {"molecule": "Cc1cc(NC(=O)CSc2nc3ccccc3c(=O)n2CC2CCC(C(=O)NCc3ccccc3Cl)CC2)n[nH]1", "note": "(stereo not drawn) [UNC10245433A, Cc1cc(NC(=O)CSc2nc3ccccc3c(=O)n2CC2CCC(CC2)C(=O)NCc2ccccc2Cl)n[nH]1]", "values": [
      {"measurement": "Initial screen in CIB1 depletion sensitive MDA-MB-461 cells", "setting": "MDA-MB-461 cells", "value": 5.2, "unit": "%"}
    ]},
    {"molecule": "Cc1cc(NC(=O)CSC2=Nc3ccccc3C(=O)C2CC2CCC(C(=O)NCc3ccccc3Cl)CC2)n[nH]1", "note": "(stereo not drawn) [compound 5380]", "values": [
      {"measurement": "% Death", "setting": "BT549 cells; 5380 15 µM as printed in the line", "value": 44.7433, "unit": "%"},
      {"measurement": "% Cell Death", "setting": "BT549 cells; 5380 30 µM", "value": 32.6923, "unit": "%"},
      {"measurement": "% Cell Death", "setting": "MDA-MB-231 cells; MDA-231 cells, 5380 30 µM, trypan blue cell count (adherent + floating), independent experiments (Figure 3D source data)", "value": "11.054% and 7.197% and 6.887%"},
      {"measurement": "% Death", "setting": "MDA-MB-436 cells", "value": "46.7681% and 52.6066%"},
      {"measurement": "% Cell Death", "setting": "MDA-MB-468 cells; MDA-468 cells, 5380 30 µM as printed in the line, trypan blue cell count (adherent + floating), independent experiments (Figure 3D source data)", "value": "55.8405% and 96.2818% and 86.0817%"},
      {"measurement": "% Cell Death", "setting": "MDA453 cells", "value": "9.006% and 9.952%"}
    ]}
  ]
}
